Type in all cases: cell-based
Series [1] concerns the target T1, CYP 2A6 (Homo sapiens, UniProt P11509).
T1 construct: purchased; host or cells: insect cells infected with recombinant baculovirus
T1 sequence (P11509 1-494): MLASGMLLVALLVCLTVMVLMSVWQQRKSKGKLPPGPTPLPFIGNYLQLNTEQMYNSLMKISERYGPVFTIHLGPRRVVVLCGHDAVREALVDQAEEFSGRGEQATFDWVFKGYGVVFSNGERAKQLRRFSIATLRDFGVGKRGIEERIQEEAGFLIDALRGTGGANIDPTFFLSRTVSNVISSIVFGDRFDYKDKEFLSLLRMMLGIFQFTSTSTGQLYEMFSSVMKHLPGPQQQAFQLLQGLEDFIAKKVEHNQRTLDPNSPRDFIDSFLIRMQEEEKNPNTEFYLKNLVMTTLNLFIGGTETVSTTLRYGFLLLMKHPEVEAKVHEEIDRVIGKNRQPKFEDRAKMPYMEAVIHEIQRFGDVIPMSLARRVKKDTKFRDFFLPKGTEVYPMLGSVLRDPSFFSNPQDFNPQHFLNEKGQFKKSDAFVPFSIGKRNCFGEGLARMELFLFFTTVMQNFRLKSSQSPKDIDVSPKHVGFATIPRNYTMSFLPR
The series is described as follows: Methemoglobinemic metabolite formation with Baculosomes, CYP 2A6. Conditions: mean ± S.D. of four.

Amino acid sequences for entries named in this document (tags omitted). A change or cut given only in a name is not applied to a line headed by its entry. Residues count along the entry.
UniProt P10632, whole entry: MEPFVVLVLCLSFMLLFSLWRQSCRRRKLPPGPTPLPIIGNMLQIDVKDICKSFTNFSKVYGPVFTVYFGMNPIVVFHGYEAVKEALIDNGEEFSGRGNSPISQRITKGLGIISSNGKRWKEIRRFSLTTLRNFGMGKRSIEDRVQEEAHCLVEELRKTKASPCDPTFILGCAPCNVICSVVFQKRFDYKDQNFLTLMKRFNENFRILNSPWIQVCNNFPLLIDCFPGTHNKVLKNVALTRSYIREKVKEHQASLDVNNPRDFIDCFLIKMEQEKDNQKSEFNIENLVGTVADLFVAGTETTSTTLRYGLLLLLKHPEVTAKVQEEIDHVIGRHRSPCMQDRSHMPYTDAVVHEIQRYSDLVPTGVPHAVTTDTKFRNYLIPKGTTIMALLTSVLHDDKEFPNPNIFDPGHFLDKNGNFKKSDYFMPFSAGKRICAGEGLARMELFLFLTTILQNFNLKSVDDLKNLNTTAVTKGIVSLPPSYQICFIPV
UniProt P05181: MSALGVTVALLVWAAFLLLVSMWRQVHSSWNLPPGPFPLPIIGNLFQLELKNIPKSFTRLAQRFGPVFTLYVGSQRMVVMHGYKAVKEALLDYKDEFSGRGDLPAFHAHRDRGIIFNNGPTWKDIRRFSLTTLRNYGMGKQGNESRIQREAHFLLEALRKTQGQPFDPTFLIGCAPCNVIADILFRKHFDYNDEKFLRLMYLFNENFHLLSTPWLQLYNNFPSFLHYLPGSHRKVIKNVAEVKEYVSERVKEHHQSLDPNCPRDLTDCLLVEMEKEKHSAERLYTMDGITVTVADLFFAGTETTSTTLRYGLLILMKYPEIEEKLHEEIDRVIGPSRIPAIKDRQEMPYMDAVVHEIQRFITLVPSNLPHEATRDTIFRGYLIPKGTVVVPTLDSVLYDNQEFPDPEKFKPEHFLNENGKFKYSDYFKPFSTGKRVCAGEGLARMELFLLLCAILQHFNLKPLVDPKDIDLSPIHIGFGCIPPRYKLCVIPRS
UniProt P05177, 2-516 limits assumed: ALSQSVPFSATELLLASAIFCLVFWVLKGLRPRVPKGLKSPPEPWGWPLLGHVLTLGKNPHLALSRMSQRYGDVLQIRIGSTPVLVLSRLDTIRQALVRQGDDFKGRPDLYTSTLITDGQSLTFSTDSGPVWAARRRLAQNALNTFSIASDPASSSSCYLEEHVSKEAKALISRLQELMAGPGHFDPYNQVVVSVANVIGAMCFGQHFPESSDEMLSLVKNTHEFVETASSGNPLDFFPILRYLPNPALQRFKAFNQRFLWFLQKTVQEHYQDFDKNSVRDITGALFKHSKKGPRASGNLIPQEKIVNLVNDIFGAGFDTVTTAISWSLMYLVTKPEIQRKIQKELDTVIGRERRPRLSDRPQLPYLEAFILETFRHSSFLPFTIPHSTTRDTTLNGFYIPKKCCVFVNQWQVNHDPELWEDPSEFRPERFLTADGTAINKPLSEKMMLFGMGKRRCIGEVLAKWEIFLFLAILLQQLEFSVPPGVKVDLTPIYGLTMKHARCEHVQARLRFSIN
UniProt P20813: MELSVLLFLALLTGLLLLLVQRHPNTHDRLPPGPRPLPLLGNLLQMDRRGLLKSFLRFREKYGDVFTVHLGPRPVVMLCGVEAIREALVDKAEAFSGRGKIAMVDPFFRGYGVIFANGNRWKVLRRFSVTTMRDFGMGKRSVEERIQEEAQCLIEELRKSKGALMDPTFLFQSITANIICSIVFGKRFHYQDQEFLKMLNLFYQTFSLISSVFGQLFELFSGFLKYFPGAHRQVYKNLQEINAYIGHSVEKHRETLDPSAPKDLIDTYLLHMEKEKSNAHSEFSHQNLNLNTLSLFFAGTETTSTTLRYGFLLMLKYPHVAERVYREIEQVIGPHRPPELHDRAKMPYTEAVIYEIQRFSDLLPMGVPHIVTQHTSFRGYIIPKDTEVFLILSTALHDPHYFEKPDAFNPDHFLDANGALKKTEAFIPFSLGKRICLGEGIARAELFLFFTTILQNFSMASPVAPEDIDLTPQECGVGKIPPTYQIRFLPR
UniProt P10635, whole entry: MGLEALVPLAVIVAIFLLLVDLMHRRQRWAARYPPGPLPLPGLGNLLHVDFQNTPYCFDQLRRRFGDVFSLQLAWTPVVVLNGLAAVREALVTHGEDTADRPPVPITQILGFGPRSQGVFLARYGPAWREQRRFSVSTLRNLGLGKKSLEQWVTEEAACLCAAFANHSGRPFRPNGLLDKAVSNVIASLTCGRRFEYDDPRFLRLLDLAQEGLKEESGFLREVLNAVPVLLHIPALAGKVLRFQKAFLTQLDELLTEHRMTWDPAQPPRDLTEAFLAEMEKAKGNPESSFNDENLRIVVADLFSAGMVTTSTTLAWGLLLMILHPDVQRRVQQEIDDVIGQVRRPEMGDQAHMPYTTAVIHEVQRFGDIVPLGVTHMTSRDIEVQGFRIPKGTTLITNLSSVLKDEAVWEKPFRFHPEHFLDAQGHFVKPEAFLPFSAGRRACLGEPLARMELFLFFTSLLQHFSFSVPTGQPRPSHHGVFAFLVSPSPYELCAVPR
UniProt P11712, whole entry: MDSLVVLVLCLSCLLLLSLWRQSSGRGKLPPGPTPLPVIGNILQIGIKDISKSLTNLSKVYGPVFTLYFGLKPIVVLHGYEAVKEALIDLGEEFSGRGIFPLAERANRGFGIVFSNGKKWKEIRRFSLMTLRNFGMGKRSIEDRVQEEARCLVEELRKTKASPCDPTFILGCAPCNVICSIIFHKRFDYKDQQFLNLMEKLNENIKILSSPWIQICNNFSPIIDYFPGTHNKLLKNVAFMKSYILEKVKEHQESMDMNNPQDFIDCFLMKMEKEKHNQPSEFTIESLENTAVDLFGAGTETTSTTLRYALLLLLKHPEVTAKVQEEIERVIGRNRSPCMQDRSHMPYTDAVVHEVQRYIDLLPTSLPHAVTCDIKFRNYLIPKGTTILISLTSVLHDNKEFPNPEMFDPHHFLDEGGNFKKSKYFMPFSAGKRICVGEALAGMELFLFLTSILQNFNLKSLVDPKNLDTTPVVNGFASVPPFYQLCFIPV
UniProt P33261, whole entry: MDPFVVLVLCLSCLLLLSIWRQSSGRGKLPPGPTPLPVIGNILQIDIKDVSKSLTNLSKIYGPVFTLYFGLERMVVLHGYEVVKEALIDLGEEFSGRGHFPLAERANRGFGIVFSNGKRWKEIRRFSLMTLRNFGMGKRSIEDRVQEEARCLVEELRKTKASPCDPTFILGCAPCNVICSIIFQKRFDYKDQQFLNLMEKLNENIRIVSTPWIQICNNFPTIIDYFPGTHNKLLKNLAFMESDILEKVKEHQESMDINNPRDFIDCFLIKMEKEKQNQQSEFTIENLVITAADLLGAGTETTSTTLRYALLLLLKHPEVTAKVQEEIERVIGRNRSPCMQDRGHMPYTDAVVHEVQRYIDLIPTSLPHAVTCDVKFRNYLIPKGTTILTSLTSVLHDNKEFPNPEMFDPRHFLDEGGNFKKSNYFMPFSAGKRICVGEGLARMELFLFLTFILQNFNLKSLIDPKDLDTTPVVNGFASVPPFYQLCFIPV

The target in series [2] is T2, CYP 2C8 (Homo sapiens, UniProt P10632).
T2 construct: purchased; host or cells: insect cells infected with recombinant baculovirus
Description: Methemoglobinemic metabolite formation with Baculosomes, CYP 2C8. Conditions: mean ± S.D. of four.

The target in series [3] is T3, CYP 2E1 (Homo sapiens, UniProt P05181).
T3 construct: purchased; host or cells: insect cells infected with recombinant baculovirus
The series is described as follows: Methemoglobinemic metabolite formation with Baculosomes, CYP 2E1. Conditions: mean ± S.D. of four.

Series [4] concerns the target T4, CYP 1A2 (Homo sapiens, UniProt P05177).
T4 construct: purchased; host or cells: insect cells infected with recombinant baculovirus
The series is described as follows: Methemoglobinemic metabolite formation with Baculosomes, CYP 1A2. As to conditions: mean ± S.D. of four.

The target of series [5] is T5, CPY 2B6 (Homo sapiens, UniProt P20813).
T5 construct: purchased; host or cells: insect cells infected with recombinant baculovirus
Description: Methemoglobinemic metabolite formation with Baculosomes, CYP 2B6. Conditions: mean ± S.D. of four.

In series [6] the target is T6, CYP 2D6 (Homo sapiens, UniProt P10635).
T6 construct: purchased; host or cells: insect cells infected with recombinant baculovirus
Description: Methemoglobinemic metabolite formation with Baculosomes, CYP 2D6. As to conditions: mean ± S.D. of four.

Series [7] has as its target T7, CYP 2C9 (Homo sapiens, UniProt P11712).
T7 construct: purchased; host or cells: insect cells infected with recombinant baculovirus
The series is described as follows: Methemoglobinemic metabolite formation with Baculosomes, CYP 2C9. Conditions: mean ± S.D. of four.

The target of series [8] is T8, CYP 2C19 (Homo sapiens, UniProt P33261).
T8 construct: purchased; host or cells: insect cells infected with recombinant baculovirus
The series is described as follows: Methemoglobinemic metabolite formation with Baculosomes, CYP 2C19. Conditions: mean ± S.D. of four.

Series [9] concerns pooled human liver microsomes. Description: In vitro formation of methemoglobinemic metabolites with pooled human liver microsomes and human erythrocytes.

Each structure is given as a SMILES string.

As for `COc1cc(NC(C)CCCN)c2ncccc2c1` (stereo not drawn) [Primaquine, primaquine, reference compound], the “% methemoglobin formed, CYP 2A6” value in [1] was determined as 2.435 ± 0.786%. Also, in series [2], the “% methemoglobin formed, CYP 2C8” value was 2.025 ± 0.222%. Moreover, in series [3], the “% methemoglobin formed, CYP 2E1” value came out at 16.890 ± 1.978%. For the same compound, the “% methemoglobin formed, CYP 1A2” value in series [4] amounted to 7.170 ± 0.744%. The “% methemoglobin formed, CPY 2B6” value in series [5] stood at 16.880 ± 1.215%. Besides, the “% methemoglobin formed, CYP 2D6” value in series [6] turned out to be 19.500 ± 1.728%. Further, in series [7], the “% methemoglobin formed, CYP 2C9” value is listed as 0.450 ± 0.530%. Also, the “% methemoglobin formed, CYP 2C19” value in series [8] was found to be 2.300 ± 0.816%. Further, in series [9] (drug 100 μM, microsomes equivalent to 25 pmoles cytochrome P450, Mean ± S.D. of four), the “% methemoglobin formation, Pooled Human liver Microsomes” value is on record as 17.060 ± 1.015%. In series [9] (pooled human Liver Microsomes, 8-aminoquinoline with Azithromycin), the “formation of methemoglobenemic metabolites, Azithromycin” value was determined as 12.930 ± 2.515. Further, the “formation of methemoglobenemic metabolites, Erythromycin” value in series [9] (pooled human Liver Microsomes, 8-aminoquinoline with Erythromycin) was determined as 13.688 ± 0.470. For the same compound, the “formation of methemoglobenemic metabolites, Microsomes” value in series [9] (pooled human Liver Microsomes, no macrolide) was found to be 17.490 ± 0.913.

The record behind these values is patent US20070190188A1, “Controlling Toxicity of Aminoquinoline Compounds” (The University of Mississippi, priority 2005, published 2007).
